From US7625863B2, “Treatment of patients with dysfunctional cardiac sodium channels” (The MetroHealth System, priority 2006, dated 2009)

Tests used:
[1] = target: T1, H558R-SCN5A+R282H-C373Y-SCN5A channels (Homo sapiens, UniProt Q14524, C373Y/R282H); assay: MTSET block of whole-cell sodium current, H558R-SCN5A+R282H-C373Y-SCN5A; format: cell-based; details: current remaining after 1 μmol/L MTSET
T1 construct: expressed in transfected cells; host or cells: HEK293

[2] = target: T2, R282H mutant channel (Nav1.5) (Homo sapiens, UniProt Q14524, R282H); assay: Whole cell patch clamp of sodium currents in HEK293 cells co-expressing R282H mutant channel and channel fragments; format: cell-based; details: for whole cell current, % of wild type level / restoration of whole cell sodium current / peak sodium current density compared to WT: HEK293 cells; for whole cell current, % of wild type level: R282H mutant channel co-transfected with channel fragment; for restoration of whole cell sodium current: R282H mutant co-expressed with peptide; for peak sodium current density compared to WT: FIG. 6B
T2 construct: expressed in transfected cells; host or cells: HEK293

[3] = target: YFP-1022/R282H (Homo sapiens, UniProt Q14524, R282H); assay: FRET folding study of mutant channel construct in HEK293 cells; details: YFP-1022/R282H co-expressed with peptide or in presence of drug

C[N+](C)(C)CCSS(C)(=O)=O.[Br-] [MTSET, [2-(trimethylammonium)ethyl]methanethiosulfonate bromide]
Peak Current Density [1]: −259 ± 65 pA/pF
Steady-State Inactivation (V1/2) [1]: −93.1 ± 3.4 mV

ESHRTSLLVP [R558-10aa, 10 amino acid channel fragment containing the H558R polymorphism]
whole cell current, % of wild type level [2]: 70 % of wild type level
restoration of whole cell sodium current [2]: Current was restored

NSTAGESESHRTSLLVPWPL [R558-20aa, 20 amino acid fragment of Nav1.5 containing the H558R polymorphism, expressed from cDNA]
FRETc compared with non-mutated YFP-1022 [3]: similar
peak sodium current density compared to WT [2]: similar
whole cell current, % of wild type level [2]: 75 % of wild type level
restoration of whole cell sodium current [2]: Current was restored
Time Constant of Inactivation compared to WT ([2]; rescued R282H channels, FIG. 7D): significantly slower
Conductance (V1/2) ([2]; rescued R282H currents, HEK293): −36.8 ± 1.6 mV
Steady State Inactivation (V1/2) ([2]; rescued R282H currents, HEK293): −82.8 ± 1.5 mV

NSTARESESHHTSLLVPWPL [H558-20aa, corresponding 20 amino acid fragment of the wild type channel, reference compound]
peak sodium current density compared to WT [2]: significantly lower
restoration of whole cell sodium current [2]: but not when co-expressed with the WT peptide
restoration of whole cell sodium current ([2]; listed as H558-20a): restoration of current was not observed
